Ab-14 light chain CDR variants: yeast mating affinities

Source: Li et al. 2023 (doi:10.1038/s41467-023-39022-2), MIT Lincoln Laboratory and A-Alpha Bio; data file from the FLAb repository.

Binding partner: SARS-CoV-2 spike HR2 peptide, sequence PDVDLGDISGINAS.

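The starting antibody came from a phage panning campaign against this peptide. Designed CDR sequences, proposed from the first random library and measured here. Their group label is 14L_Ctrl (Ctrl: baseline library sampled from a position-specific scoring matrix, with some repeated check sequences). In AlphaSeq, yeast of one mating type display the scFv and yeast of the other type display the target. The frequency of each diploid, read from paired DNA barcodes, reflects how well the two displayed proteins bind. Each replicate has its own calibration line, from reference interactions of the BCL2 family. The assay was run in six technical replicates.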

Ab-14 is the parent antibody, in scFv form: VH, then a 15-residue (Gly4Ser)3 linker, then VL. The heavy chain is unchanged in all variants.
VH: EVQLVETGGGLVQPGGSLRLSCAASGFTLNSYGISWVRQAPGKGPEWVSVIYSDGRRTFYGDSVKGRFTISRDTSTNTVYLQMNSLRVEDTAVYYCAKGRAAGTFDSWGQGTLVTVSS
VL: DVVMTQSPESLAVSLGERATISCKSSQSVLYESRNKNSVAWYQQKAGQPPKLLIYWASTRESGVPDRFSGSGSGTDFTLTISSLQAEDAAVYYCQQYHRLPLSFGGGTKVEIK

Variants are written as CDR1, CDR2 and CDR3 of the light chain (limits as in the source). Parent: KSSQSVLYESRNKNSVA, WASTRES, QQYHRLPLS. Scale: log10 of Kd in nM, estimated from mating counts; low values are strong binders. Where no diploid with the target was found in that replicate, the entry reads "n.d.": below detection, most likely a poor binder, though not proof of it.

CDR-L1 | CDR-L2 | CDR-L3 | log10 Kd, replicates | control signals
KFSQSVLTESMNQNSVA | WASTRES | QQYHRLPLS | 1.76 / 1.19 / n.d. / 1.33 / 1.22 / 1.07 | 0 of 18
KSSQSVLDISRNKNSVA | GASTRES | QQYHRLPLS | 0.87 / 1.08 / 0.87 / 0.65 / 0.64 / 0.84 | 1 of 18 (2.47)
KSEQSVLYESFNKNSVA | WASTRES | QQYYRLPLS | 0.84 / 0.53 / 0.57 / 0.53 / 0.66 / 0.82 | 2 of 18 (2.51)
KSSQSVMYESRNKNSVA | WASTRIS | QQYHRLPLS | n.d. / n.d. / 1.94 / n.d. / n.d. / n.d. | 0 of 18
KSFQSMLYEGENKNSVA | KASTRES | QQYHRLPLS | 0.11 / 0.22 / 0.36 / 0.51 / 0.32 / 0.65 | 0 of 18
KSSSEVEYESYNKNQVA | WASTRES | QQYHRLPLS | n.d. / 3.23 / 1.98 / n.d. / 1.90 / n.d. | 0 of 18
KSSQSVLYEGRNKNSVA | WISTRES | QQYSRLPLS | n.d. / n.d. / n.d. / n.d. / n.d. / n.d. | 0 of 18
KSSQSVLYEGINKNSVA | WSSTPES | QQYHRLPLS | n.d. / n.d. / n.d. / n.d. / n.d. / n.d. | 0 of 18
KSSQSALDESRNKNSVA | SASTRES | QQYHRLPLM | 0.58 / 0.44 / 0.68 / 0.18 / 0.11 / 0.42 | 1 of 18 (1.23)
KISQSVLYESDNKNSVA | EASTRES | QQYHVLPLS | 1.08 / 0.67 / 1.14 / 0.88 / 1.13 / 0.93 | 1 of 18 (3.31)
KSSQSVLYESRNKNSVA | GASTRES | QQYVRLPLS | -0.04 / 0.03 / -0.22 / -0.41 / -0.24 / -0.02 | 0 of 18
KSSQSMLYESRNKNSVA | NAQTRES | QQYHRLPLS | 0.94 / 0.66 / 0.78 / 0.60 / 0.53 / 1.15 | 2 of 18 (2.53)
KSSQSVRYEERNKNSVA | WASTRES | QQYHMLPLQ | n.d. / n.d. / n.d. / n.d. / n.d. / n.d. | 0 of 18
KSPQSVLYHSRNSNSVA | GASLRES | QQYHRLPLS | 1.04 / 2.37 / 1.28 / 0.56 / 1.37 / 0.46 | 0 of 18
KVSQSVLYESPNKNSVA | QASTRES | QQCHRLPLS | n.d. / n.d. / n.d. / n.d. / n.d. / n.d. | 0 of 18
KSSQSVLYFSRNNNSVA | CASTRES | QQYHRLPLS | n.d. / n.d. / n.d. / n.d. / 3.53 / n.d. | 1 of 18 (2.46)
KMSQSVRYESRNGNSVA | QASTREF | QQKHRLPLS | n.d. / n.d. / 1.59 / 1.26 / 1.90 / n.d. | 1 of 18 (1.97)
KSSQSVLQESENKNSVA | WASTRES | QQYHRLPLS | 1.49 / 1.05 / 1.24 / 0.66 / 0.48 / 0.86 | 1 of 18 (2.67)
KSSQSVLYESRNKNEVA | WASTRES | QQYHRLPLS | n.d. / n.d. / n.d. / n.d. / n.d. / 2.65 | 1 of 18 (1.99)
SSSQSVLYESVNKNSVA | WAFTRES | QQYHRLPLS | 0.67 / n.d. / n.d. / n.d. / n.d. / n.d. | 0 of 18
KSSQSVLYESRNKNSVA | WASTREL | QTYHRLPLS | n.d. / n.d. / n.d. / n.d. / n.d. / n.d. | 0 of 18
KSSQSSLYESRSKNSVA | NASTRES | NQYHRLPLS | 1.42 / 0.23 / 1.10 / 0.13 / 1.03 / 0.70 | 0 of 18
KSSQSVLYESLNKNSVA | NASTREM | QQYHRLPLS | 0.33 / 0.24 / 0.39 / 0.10 / 0.31 / 0.69 | 0 of 18
KSSDSVLGESRNKNSVA | WASTRES | QQYHRLPLS | 1.07 / 1.67 / 1.35 / 0.72 / 1.64 / 1.70 | 1 of 18 (2.11)
KSSQSVLYESRNKNSVA | EVSMRES | QQYHRLPLS | 0.57 / 0.74 / 0.74 / 0.24 / 0.44 / 0.65 | 0 of 18
TSSQSVMLESRNKNSVA | NASTRES | QQYHRLPLS | 0.59 / 0.49 / 0.56 / 0.21 / 0.56 / 0.45 | 1 of 18 (2.25)
KSSQSVLYESRMKNSVA | WASERES | QQYHRLPLS | 2.90 / 1.36 / 1.59 / 1.97 / 2.72 / 2.51 | 1 of 18 (2.46)
KSSQSVLYDSRNKNSVA | WASTRES | QQCHRLPLS | n.d. / n.d. / n.d. / n.d. / n.d. / 2.16 | 0 of 18
KQGQSVSYESRNKNSVA | WASTREV | QQYIRLPLS | n.d. / n.d. / n.d. / n.d. / n.d. / n.d. | 0 of 18
MSSQSVTNESRNKNSVA | WASTRET | QQYHRLPLN | n.d. / n.d. / n.d. / n.d. / 1.99 / n.d. | 1 of 18 (2.11)
KSSQSVLYEERNKNSVA | HASTRES | QQYHRLPLS | 0.84 / 0.66 / 0.63 / 0.56 / 1.28 / 1.02 | 0 of 18
KFSQSVLDESRNKNSVA | KASTRES | QQYHRLPLS | 0.28 / 0.18 / 0.04 / -0.13 / 0.15 / 0.32 | 0 of 18
KSSQSVLEESRNKNSVA | EASTRES | QQYHRLPLS | 0.66 / 1.08 / 0.58 / 1.45 / 1.19 / 0.88 | 0 of 18
KSSQSVIYESNNQNSVA | GASTRES | QQPFRLPLS | n.d. / n.d. / n.d. / n.d. / n.d. / n.d. | 0 of 18
KSSQSDLYESRVENSVA | WASKRES | QQYHRLPLS | n.d. / 0.90 / 1.26 / 0.88 / 1.17 / 1.59 | 0 of 18
KSSPQVLYEDRNKNSVA | HASTRES | FSYWVLPLS | -0.25 / 0.22 / -0.03 / -0.12 / 0.31 / 0.45 | 0 of 18
VMSQSVPYESLNKNSVA | EASTRES | QQYHRLPLS | 0.42 / 0.27 / 0.25 / 0.43 / 0.33 / 0.71 | 1 of 18 (2.39)
KSSQSVLYESRNKNSVA | WGSTRNS | QQYHRLPLS | 2.27 / 1.87 / 2.01 / 2.01 / 1.26 / 3.21 | 2 of 18 (2.48)
RSSQSVLYFSRTKNSVA | QASTRES | EQYHRLPLS | n.d. / n.d. / n.d. / 0.56 / 1.53 / n.d. | 0 of 18
KSSQSVLAESSNKNSVA | WAHTRER | QQYHRLPLS | 2.14 / 1.95 / 1.48 / 1.27 / 1.05 / 1.63 | 1 of 18 (2.43)
KSSGSVLYESNNKNSVA | GDSTRES | QQYHRLPLG | n.d. / n.d. / n.d. / n.d. / n.d. / n.d. | 0 of 18
KSSQSVLFESRNKNSVA | WASTRES | QQYHRLNLS | 1.42 / 2.30 / 1.63 / n.d. / n.d. / 2.93 | 1 of 18 (1.70)
KSSPSVLYEGRNKNSVA | WASTRES | QQYHRLPES | n.d. / n.d. / n.d. / n.d. / n.d. / n.d. | 0 of 18

The 6 strongest on average among those seen in every replicate, once more:

| CDR-L1 | CDR-L2 | CDR-L3 | log10 Kd, replicates | control signals |
|---|---|---|---|---|
| KSSQSVLYESRNKNSVA | GASTRES | QQYVRLPLS | -0.04 / 0.03 / -0.22 / -0.41 / -0.24 / -0.02 | 0 of 18 |
| KSSPQVLYEDRNKNSVA | HASTRES | FSYWVLPLS | -0.25 / 0.22 / -0.03 / -0.12 / 0.31 / 0.45 | 0 of 18 |
| KFSQSVLDESRNKNSVA | KASTRES | QQYHRLPLS | 0.28 / 0.18 / 0.04 / -0.13 / 0.15 / 0.32 | 0 of 18 |
| KSSQSVLYESLNKNSVA | NASTREM | QQYHRLPLS | 0.33 / 0.24 / 0.39 / 0.10 / 0.31 / 0.69 | 0 of 18 |
| KSFQSMLYEGENKNSVA | KASTRES | QQYHRLPLS | 0.11 / 0.22 / 0.36 / 0.51 / 0.32 / 0.65 | 0 of 18 |
| VMSQSVPYESLNKNSVA | EASTRES | QQYHRLPLS | 0.42 / 0.27 / 0.25 / 0.43 / 0.33 / 0.71 | 1 of 18 (2.39) |

Background: pairings of all light chain designs with three empty control strains gave a value in 4% of cases (median 2.64, 5th percentile 1.59). Values in that range, when seen in few replicates, are hard to tell from nonspecific mating. For each scFv, signals with the empty controls are counted beside the result, with their mean in brackets. The range of this assay differs from that of the first round, and the authors advise against merging the two. The authors' rule: three or more of the six replicates give a measured affinity, fewer mean a poor binder.